# AlphaSeq binding of Ab-14 light chain variants to a spike HR2 peptide

Target: peptide PDVDLGDISGINAS, taken from heptad repeat 2 (HR2) of SARS-CoV-2 spike.

Parent: Ab-14, a human scFv built as VH, three GGGGS repeats, VL. Only the CDRs of the light chain vary.
VH: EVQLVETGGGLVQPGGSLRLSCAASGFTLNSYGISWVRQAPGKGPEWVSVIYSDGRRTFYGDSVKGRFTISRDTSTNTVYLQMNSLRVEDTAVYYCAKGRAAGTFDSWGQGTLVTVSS
VL: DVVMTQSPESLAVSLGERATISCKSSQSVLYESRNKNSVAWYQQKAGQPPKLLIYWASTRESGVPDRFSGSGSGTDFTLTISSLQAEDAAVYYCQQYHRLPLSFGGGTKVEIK

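Variants in AAYL50 differ from the parent at up to three CDR positions; double and triple changes were sampled at random. The assay is AlphaSeq: two haploid yeast populations carry antibody and antigen on their surface. Binding brings cells together so that they mate, and sequencing counts the barcode pairs among the diploids. Scores were corrected for input abundance and mapped to Kd with protein pairs of known affinity run in the same pool. Mating was done three times.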

Substitutions are numbered in sequence along the VL above, starting at 1 (not Kabat). All variants listed here change N35 of the VL, counted from its first residue. Affinities are written as log10 Kd with Kd in nM; a lower number is a better binder. Replicates are averaged; those with no signal do not enter the mean. An entry "nd" has no value in the source: the pair was not observed among the diploids in any replicate. This suggests poor binding but is not conclusive. Three control strains display no target. For library AAYL50, 18% of the pairings with them gave a signal, with a median of 4.19 and one signal in twenty below 2.99, so weak values seen in few replicates may be background.

For L30M+N35I+R60K, the assay gave 2.15 (3 of 3 replicates). The variant S26T+L30G+N35F showed 1.88 (3 of 3 replicates). With N35H+S58H+L100R the result was 3.87 (1 of 3 replicates). The variant N35P+S58Q+E61M gave 1.41 (3 of 3 replicates). For S28Q+N35M+A40I, the assay gave nd (0 of 3 replicates). The variant N35A+A40R+R99S showed nd (0 of 3 replicates). The variant N35Q+A57L+P101E gave nd (0 of 3 replicates). For S25H+E32L+N35Q, the assay gave 2.51 (3 of 3 replicates).

The variant R34G+N35S+S62L showed 0.80 (3 of 3 replicates). The variant N35A+S38T+S103M gave 3.18 (2 of 3 replicates). For N35P+E61H+L102S, the assay gave 2.51 (3 of 3 replicates). The variant N35M+T59V gave 0.47 (3 of 3 replicates). For Q27T+S28P+N35G, the assay gave 0.91 (3 of 3 replicates). For L30Q+N35I, the assay gave 1.51 (3 of 3 replicates). The variant S25W+N35Q gave 0.96 (3 of 3 replicates). For R34T+N35F, the assay gave 0.71 (3 of 3 replicates).

With N35T+A57N the result was nd (0 of 3 replicates). The variant N35F+E61C+R99Q showed 0.91 (3 of 3 replicates). The variant K24A+N35L+A40Q gave 4.15 (2 of 3 replicates). The variant K24G+S28P+N35R gave 3.60 (3 of 3 replicates). The variant N35G+W56N+T59M gave nd (0 of 3 replicates). For N35Y+T59Q, the assay gave 0.77 (3 of 3 replicates). With N35G+L102H the result was 3.73 (1 of 3 replicates). For N35G+N37H+A57Q, the assay gave 2.94 (3 of 3 replicates).

The variant E32H+N35C+S38M showed nd (0 of 3 replicates). For N35C+Q96H+S103E, the assay gave 3.46 (3 of 3 replicates). The variant L30D+N35H showed 1.77 (3 of 3 replicates). The variant N35E+K36E+S38M gave 2.32 (3 of 3 replicates). With N35I+W56V the result was nd (0 of 3 replicates). The variant N35V+V39Y+W56Y showed 4.31 (1 of 3 replicates). The variant N35H+S62I+P101S showed nd (0 of 3 replicates). For L30A+N35Y+K36C, the assay gave 3.93 (1 of 3 replicates).

With N35I+R60L+E61W the result was nd (0 of 3 replicates). With N35W+S58F+E61Y the result was 3.63 (2 of 3 replicates). The variant L30I+N35Y+S103P showed nd (0 of 3 replicates). With Q27D+L30P+N35E the result was 0.65 (3 of 3 replicates). With Y31T+N35Y+H98K the result was 0.87 (3 of 3 replicates). For Q27W+N35Q+A57P, the assay gave 2.25 (1 of 3 replicates).

For reference, 4 entries of the list once more:

The variant N35F+E61C+R99Q gave 0.91 (3 of 3 replicates).
The variant Q27T+S28P+N35G gave 0.91 (3 of 3 replicates).
The variant N35E+K36E+S38M gave 2.32 (3 of 3 replicates).
The variant N35G+L102H gave 3.73 (1 of 3 replicates).

The measurements come from Engelhart et al. 2022 (doi:10.1038/s41597-022-01779-4) through the FLAb antibody collection.